Test results taken from US20170191988A1.

Legend:
[1] = biological target: long AHLR assay construct (ssFLAG-long AHLR-HA-lyt2) (mouse) (UniProt P01731); test: cell-based or functional assay
[2] = biological target: short AHLR assay construct (ssFLAG-short AHLR-HA-lyt2) (mouse) (UniProt P01731); test: cell-based or functional assay

“HA-tagged MMP-14 protein (full-length human MMP-14 with an HA-tag upstream of the MMP-14 transmembrane domain) (from UniProt P50281 112-582) (enzyme)” showed an FLAG cell surface detection (% cells, flow cytometry), AHLR co-transfected with MMP-14 plasmid against control plasmid [1] of 14%, an FLAG cell surface expression, mean of replicates (n=4), AHLR+ cells transfected with MMP-14 against control plasmid [1] of 36.1% and an FLAG expression, mean of replicates (n=4), AHLR+ cells with MMP-14(i) and rtTA, after against before dox induction [1] of 74.8%. It also gave an FLAG tag (% cells, flow cytometry, n=5), 50K AHLR+ cells mixed with 175K MMP-14+ cells against naive HEK 293T control [1] of 15.2%, an FLAG tag expression on the cell surface (% FLAG-positive cells, flow cytometry), HEK 293T co-transfected with MMP-14 against substrate alone [1] of 24% and an FLAG tag signal (% cells, flow cytometry), HEK-293T co-transfected with AHLR, MMP-14 (i) and rtTA, with dox against without dox [1] of 22%. The FLAG tag signal (% cells, flow cytometry), constitutive MMP-14 (c) co-transfected with AHLR [1] was 11%, the FLAG-tag signal (% cells, flow cytometry), AHLR+ cells transfected with constitutive MMP-14(c) [1] was 33% and the FLAG-tag signal (% cells, flow cytometry), AHLR+ cells transfected with inducible MMP-14(i), with dox [1] was 38%. It also gave an FLAG-tag signal (% cells, flow cytometry), AHLR+ cells transfected with inducible MMP-14(i), without dox [1] of 56%, an FLAG-tag staining (% cells, flow cytometry), stable AHLR+ cells transfected with MMP-14(c) [1] of 23% and an FLAG tag expression on the cell surface (% FLAG-positive cells, flow cytometry), HEK 293T co-transfected with MMP-14 against substrate alone [2] of 19%.
